≈ marks a conversion by molar mass, not a printed value. Like-named read-outs stand apart in the source and are kept apart here.
Assays:
[1] = test system: Klebsiella pneumoniae (patient isolate)
Procedure: (§1) The minimum inhibitory concentration (MIC) is defined as the lowest concentration of an antimicrobial ingredient or agent that is bacteriostatic (prevents the visible growth of bacteria).
(§2) Mueller Hinton broth (MHB) comprising 0.01% v/v acetic acid (Sigma Aldrich; St Louis, Mo.) and 0.2% w/v bovine serum albumin (Sigma Aldrich). Equal concentrations of bacteria were plated in wells of standard tissue culture microplates at a density of 0.5×10^8 CFU ml^−1 in MHB per well. Treatments were equivalent volumes (50 μl) of NK-lysin peptides in concentrations of 0 to 150 μg/ml, or no NK-lysin peptides for control wells. The treated plates were incubated at […] and optical densities were determined for each well at 0 minutes, 1, 2 and 3 hours and after an overnight incubation.

[2] = test system: Salmonella typhimurium (ATCC 14028); settings: for reduction of bacterial survival: 15 μg/ml
Procedure: as §1, §2

[3] = test system: Pseudomonas aeruginosa (ATCC 9027)
Procedure: as §1, §2

[4] = test system: Streptococcus mutans (isolate)
Procedure: as §1, §2

[5] = test system: Streptococcus pyogenes (ATCC 19615)
Procedure: as §1, §2

[6] = test system: Shigella sonnei (ATCC 25931); settings: Sh. sonnei ATCC 25931
Procedure: as §1, §2

[7] = test system: Escherichia coli (ATCC 11775)
Procedure: as §1, §2

[8] = test system: Klebsiella oxytoca (ATCC 49131)
Procedure: as §1, §2

Rotavirus (strain SA-11) = assay type: cell-based
Procedure: Rotavirus (strain SA-11) was activated with 10 μg/mL trypsin before propagation on MA-104 cells derived from kidney cells of African […] monkey. MA-104 cells were cultivated in tissue culture flasks in the presence of less than 5% CO2 at 37° C. in Dulbecco's Minimal Essential Medium (DMEM) (Sigma-Aldrich) The DMEM included 1% antibiotic antimycotic solution and 10% heat inactivated fetal bovine serum (A5955, Sigma-Aldrich). Centrifugation of rotavirus was performed at 300×g for 5 mins in order to purify by removal of cell debris. The supernatant was utilized as a stock suspension of virus after filtration through 0.2 μm membrane. The stock virus contained 10^6-10^7 TCID50 per mL and was stored at −80° C. for future use.
In order to activate infectivity, rotavirus was placed in a solution of 10 μg/mL trypsin at 37° C. for 30 min. A 100 μl aliquot of the activated rotavirus sa-11 was mixed with and equal volume of 80 μg/ml NK-lysin peptides for a final rotavirus concentration of 1×10^6 TCID50/ml. The rotavirus and NK-lysin peptide mixture was first incubated for at 37° C. for 1 hour. Serial dilutions of rotavirus and rotavirus+peptide mixtures were prepared. Aliquots 100 μl of the 10-fold serial dilutions were then added to 96-well tissue culture plates comprising monolayers of MA-104 cells at a density of approximately 5.0×10^4 cells per well. Eight wells were used for each sample to make sure sufficient assay precision was achieved. The microplates were incubated for 5 days at 37° C. under 5% CO2 atmosphere. During the 5-day incubation, cells were monitored daily under a microscope to check for a cytopathic effect (CPE). A tissue culture infectious dose (TCID) was the infectious dose/mL of tissue culture equal to 50 percent of wells showing CPE at a specific dilution and was expressed as the TCID50 for that dilution. The highest dilutions in which 50% or higher wells were read as the TCID50.

[9] = test system: S. typhimurium (ATCC 14028); assay: Colony count assays; assay type: cell-based, Salmonella typhimurium; settings: 70 μg/ml
Procedure: Antimicrobial activity of NK-lysin peptides was assayed in cultures of S. typhimurium (ATCC 14028). The bacteria were maintained in tryptic soy broth at 3TC and were grown to the mid-logarithmic phase prior to testing. To determine the activity of NK-lysin peptides, colony count assays were carried out. Bacteria were pelleted and then re-suspended in a 10 mM sodium phosphate buffer pH 7.0 and then diluted to a density of (2×10^6 CFU ml^−1 in MHB. 50 μl of NK-lysin peptide were combined with an equal volume of bacterial culture and incubated at room temperature for 3 hours. A 1 μl sample of each culture was then diluted by 1000 (in 1 ml) and spread over MH agar plates. Colonies were counted after 24 hours at room temperature to determine the bacteria that survived.

[10] = test system: Salmonella typhimurium (ATCC 14028); assay: Combination of NK-lysin peptide and silver nanoparticles, micro-dilution growth inhibition; assay type: cell-based; settings: 1, 2, 3 and 24 hours
[11] = test system: S. typhimurium (ATCC 14028); assay type: cell-based, Salmonella typhimurium
Procedure: Screening of NK-lysin peptides was carried out against gram-negative S. typhimurium (ATCC 14028) bacteria. Overnight cultivation of the bacteria was carried out at a temperature of 3TC. A bacterial suspension was created in 10 mM sodium phosphate buffer pH 7.0 having a density of (2×10^6 CFU ml^−1) and plated on Muller-Hinton (MH) agar plates to inoculate. After the plates were dry, antibiotics discs of various concentrations (0 to 150 μg/ml) of antibiotic or NK-lysin peptides were applied to the surface of the inoculated plates. The plates were cultured overnight at 3TC and observed for restriction of growth by determining the diameter of bacterial-free zones surrounding each disc. Ceftazidime antibiotic was employed as a positive control.

[12] = test system: Salmonella typhimurium (ATCC 14028); assay: Bacterial lytic potential (OD600 ratio); assay type: cell-based; settings: OD600 (1.0)
Procedure: An assay described by Carson et al. (supra) was used with modifications to determine lytic potential of each NK-lysin. Screening of bacterial lytic potential of human and bovine NK-lysin peptides was carried out using two distinct bacterial inoculums, O.D600 (0.5) and O.D600 (1.0). Equal volumes of NK-lysin peptides (1×MIC) were combined with bacterial suspensions and plated in wells of microplates. The microplate was subsequently incubated at room temperature. A BioTek Instruments plate reader was used to measure the OD of each well of the microplate at various time intervals. NK-lysin peptides of corresponding concentrations in PBS were utilized as blanks. A ratio of OD600 nm at each time interval to the OD600 nm at 0 minutes was calculated and expressed as a percentage. Bacterial Membrane Damage with Fluorescent Microscopy Salmonella typhimurium membrane damage was determined by incubating 6.5×10^6 CFU of Salmonella typhimurium with 2×MIC of NK-lysin peptides in 10 mM phosphate buffer pH 7.0 at room temperature for one hour. Bacterial cells were stained with DAPI and PI for 1 hour, after which 10 μl of stained solution was added to a glass slide in a dark area. Slides were cover-slipped and examined by fluorescent microscopy (Nikon, Carl Zeiss; Oberkochen, Germany) was used to observe the membranes and detect any damage to the S. typhimurium membranes. Detection of Beta-Lactamase Enzymes after NK-Lysin Peptides Challenge

[13] = test system: Salmonella typhimurium (ATCC 14028); assay: Combination of NK-lysin peptide and human IL-2, micro-dilution growth inhibition; assay type: cell-based; settings: over 24 hours; IL-2 2 ng/ml, peptide 1×MIC
Procedure: The standard micro-dilution technique was used to measure the least-inhibitory concentration of NK-lysin peptide and Human IL-2 individually. This method was also used to measure the least-inhibitory concentration of the NK-lysin peptide mixed with IL-2. The 1×MIC of NK-lysin peptide against each bacterial strain was mixed with IL-2 (2 ng/ml).

[14] = test system: Salmonella typhimurium (ATCC 14028); assay: Growth kinetic activity at 2×MIC; assay type: cell-based
Procedure: The kinetic killing abilities of NK-lysin peptides were gauged in accordance with the Clinical Laboratory and Standard Institute (CLSI) broth micro-dilution technique presented by Wiegand and Hancock (2008). Mueller Hinton broth comprising 0.01% v/v acetic acid was prepared with 0.2% w/v bovine serum albumin, as above. Aerobic incubation of bacterial cells diluted to 0.5×10^8 CFU ml^−1 in MHB was carried out in microplates with the same volume (50 μl) of 2×MIC concentration of NK-lysin peptides. The plate was then incubated at room temperature. […] A distinct triplicate was used to repeat the kinetic potential of NK-lysin peptides thrice.

[15] = test system: gram-positive and gram-negative bacteria; settings: all bacterial strains tested
Text: The gram-positive bacterial strains utilized were Streptococcus pyogenes (ATCC 19615) and Streptococcus mutans (isolate obtained from a patient at King Abdul-Aziz hospital). The gram-negative bacterial strains used included Salmonella typhimurium (ATCC 14028), Escherichia coli (ATCC 11775), Pseudomonas aeruginosa (ATCC 9027), Klebsiella oxytoca (ATCC 49131), Shigella sonnei (ATCC 25931), and Klebsiella pneumoniae (patient isolate). Tryptic soy broth (TSB) was used to grow all bacterial strain overnight, after which the bacteria were washed using phosphate-buffered saline (PBS, NaCl 8 g/L, KCl 0.2 g/L, Na2HPO4 1.4 g/L, KH2PO4 0.24 g/L), and then diluted in the same buffer with 1/1000 TSB to an OD600 nm of 0.08-0.1 (1×10^8) colony-forming units (CFU)/ml, which was determined after performing retrospective plate counts on tryptic soy agar. Unless otherwise noted, the experiments in the following examples employed this inoculum preparation apart from when minimum inhibitory and bactericidal concentrations were determined, which employed cells in Muller Hinton broth. […]
Mueller Hinton broth (MHB) comprising 0.01% v/v acetic acid (Sigma Aldrich; St Louis, Mo.) and 0.2% w/v bovine serum albumin (Sigma Aldrich). […] The treated plates were incubated at […] and optical densities were determined for each well at 0 minutes, 1, 2 and 3 hours and after an overnight incubation. […]

[16] = 80 μg/ml peptide, Rotavirus (SA-11)

For `CSCC[C@H](NC(=O)[C@H](Cc1ccccc1)NC(=O)[C@H](CC(N)=O)NC(=O)[C@H](CCCNC(=N)N)NC(=O)[C@H](CS)NC(=O)[C@@H](NC(=O)[C@H](CC(=O)O)NC(=O)[C@H](CCCNC(=N)N)NC(=O)[C@H](Cc1c[nH]c2ccccc12)NC(=O)[C@H](CCCNC(=N)N)NC(=O)[C@H](CO)NC(=O)[C@H](CCCNC(=N)N)NC(=O)CNC(=O)[C@@H](NC(=O)[C@H](CCCNC(=N)N)NC(=O)[C@H](CS)NC(=O)[C@@H](NC(=O)[C@H](CCCNC(=N)N)NC(=O)[C@@H](NC(=O)[C@H](C)NC(=O)[C@H](C)NC(=O)[C@H](CC(N)=O)NC(=O)[C@H](CO)NC(=O)[C@@H](NC(=O)[C@H](CO)NC(=O)[C@H](CCCNC(=N)N)NC(=O)[C@H](CCC(N)=O)NC(=O)[C@@H](NC(=O)[C@@H]1CCCN1)[C@@H](C)O)C(C)C)[C@@H](C)O)C(C)C)[C@@H](C)O)C(C)C)C(=O)N[C@@H](CCCNC(=N)N)C(=O)O` [Human NK-lysin], which MBC [1] is on record?
Its MBC is 15 ± 0.040 µg/mL (≈ 4.2 µM).

What about the MIC [1] of the same molecule?
Its MIC is 15 ± 0.040 µg/mL (≈ 4.2 µM).

What about the “reduction of bacterial survival” value ([2]; second hour of exposure) of the same molecule?
Its value is “more than 60%”.

What about the “reduction of bacterial survival” value ([2]; third hour of exposure) of the same molecule?
The value was > 50%.

And the killing ([2]; ATCC 14028, 15 μg/ml)?
Its killing is 82%.

And the MBC ([2]; S.typhimrium ATCC 14028)?
The MBC was 70 ± 0.092 µg/mL (≈ 19.6 µM).

What about the MIC ([2]; S.typhimrium ATCC 14028) of the same molecule?
The MIC was 15 ± 0.090 µg/mL (≈ 4.2 µM).

And the MBC [3]?
The MBC was 15 ± 0.010 µg/mL (≈ 4.2 µM).

What about the MIC [3] of the same molecule?
Its MIC is 15 ± 0.010 µg/mL (≈ 4.2 µM).

What about the MBC [4] of the same molecule?
Its MBC is 25 ± 0.012 µg/mL (≈ 7.01 µM).

What about the MIC [4] of the same molecule?
Its MIC is 15 ± 0.010 µg/mL (≈ 4.2 µM).

What about the MBC [5] of the same molecule?
The MBC was 25 ± 0.010 µg/mL (≈ 7.01 µM).

And the MIC [5]?
The MIC was 15 ± 0.00 µg/mL (≈ 4.2 µM).

And the MIC [6]?
The MIC was 15 ± 0.025 µg/mL (≈ 4.2 µM).

And the MBC [7]?
The MBC was 25 ± 0.012 µg/mL (≈ 7.01 µM).

What about the MIC [7] of the same molecule?
Its MIC is 15 ± 0.014 µg/mL (≈ 4.2 µM).

What about the MBC [8] of the same molecule?
Its MBC is 15 ± 0.012 µg/mL (≈ 4.2 µM).

What about the MIC [8] of the same molecule?
Its MIC is 15 ± 0.012 µg/mL (≈ 4.2 µM).

What about the Log10TCID50/ml (Rotavirus (strain SA-11); [16]) of the same molecule?
The Log10TCID50/ml was 6.00.

What about the TCID50/ml (Rotavirus (strain SA-11); [16]) of the same molecule?
Its TCID50/ml is 1.00 × 10^6 TCID50/ml.

And the “% reduction” value (Rotavirus (strain SA-11); 80 μg/ml peptide, versus initial titre)?
The value was 49%.

And the “inhibition of infection / infectivity” value (Rotavirus (strain SA-11); Rotavirus (strain SA-11))?
The value was 50%.

And the “decrease of bacteria growth” value [9]?
The value was 4.6 fold.

What about the “antibacterial activity” value [10] of the same molecule?
The value was “effective at suppressing or inhibiting growth”.

What about the clear zone diameter [11] of the same molecule?
Its clear zone diameter is 21 mm.

And the bacterial survivability ([12]; 1 hour)?
The bacterial survivability was 27%.

And the bacterial survivability ([12]; 2 hours)?
Its bacterial survivability is 34%.

What about the bacterial survivability ([12]; 3 hours) of the same molecule?
Its bacterial survivability is 35%.

What about the “antibacterial activity” value [13] of the same molecule?
Its value is “inhibited growth”.

What about the “growth of Salmonella typhimurium” value ([14]; 2×MIC, 2 hr) of the same molecule?
The value was “less than 40%”.

What about the “growth of Salmonella typhimurium” value ([14]; 2×MIC, 3 hr) of the same molecule?
Its value is “less than 40%”.

And the bacterial growth ([14]; 2×MIC, after incubation for 4 hr)?
Its bacterial growth is “less than 25%”.

What about the “growth of Salmonella typhimurium” value ([14]; 2×MIC, first hour) of the same molecule?
The value was 30%.

And the “reduction of Salmonella typhimurium growth” value ([14]; after 4 hours)?
The value was “approximately 75%”.

What about the MIC [15] of the same molecule?
The MIC was 15 µg/mL (≈ 4.2 µM).

— patent publication US20220305093A1, “NK-LYSIN PEPTIDE COMPOSITIONS AND METHODS FOR THEIR USE AS ANTIMICROBIAL/ANTIVIRAL AGENTS” (priority 2021, published 2022)
